Assay results as given in US11518981B2, “Methods of enhancing engraftment activity of hematopoietic stem cells” (CHILDREN'S HOSPITAL MEDICAL CENTER, priority 2017, dated 2022).

What was measured:
[1] = test system: p38 MAPK; assay: phospho-p38 MAPK (p-p38) flow cytometry in cultured, transduced HSCs; assay type: cell-based, human; settings: LV or RV transduced, all culture conditions; 600 nM
[2] = test system: CD34^+ cells / CD34^+38^−90^+ HSCs; assay: gene transfer / transduction efficiency (GFP or CFP marker); assay type: cell-based, human
Method: Freshly isolated CD34^+ cells were used, wherever possible, and especially for 0 h controls. In some experiments cryopreserved CD34^+ cells were thawed for 4 hrs in IMDM containing cytokines, then washed and used for experiments. […] Cells were kept in culture for a total of either 18-24 hours, 36-42 hours or 72-96 hours. For RV transduction, human CD34^+ cells were pre-stimulated for 2 days (42-48 hours) hours at a cell density of 3×10^5 cells/ml. Retronectin coated tissue culture flasks or plates were preloaded at room temperature with GALV pseudotyped RV twice for one hour each. The vector supernatant was removed and the cells were loaded into the RV loaded retronectin coated flasks. RV transduction was also performed twice 24 hours apart at an MOI ranging from 5 to 10. After total of 72-96 hours in culture, cells were harvested. LV and RV transductions were performed at 37° C. under 5% CO2 in ambient oxygen concentrations (20% 02). For some experiments, LV was added just like RV after 2 days of pre-stimulation. p38 MAPK inhibitors Birb 796 (600 nM), Vx-745 (1 μM), or LY 2228820 (500 nM) (all from Selleckchem) were supplemented to the culture media. […]

Which “phospho-p38 (p-p38) in HSCs” value [1] does the source give for `Cc1ccc(-n2nc(C(C)(C)C)cc2NC(=O)Nc2ccc(OCCN3CCOCC3)c3ccccc23)cc1` [p38i, 1-[5-tert-butyl-2-(4-methylphenyl)pyrazol-3-yl]-3-[4-(2-morpholin-4-ylethoxy)naphthalen-1-yl]urea] here?
Its value is “significantly lower”.

What about the “transduction efficiency in the HSC compartment” value ([2]; CD34^+38^−90^+ cells) of the same compound?
Its value is “no difference”.

And the “gene transfer efficiency in vitro or in vivo” value ([2]; total human GFP^+ cells before transplant and 6, 24 weeks post 1 T)?
Its value is “no effect”.
